Measured values from patent publication US20110183942A1, “Methods and Compositions for Treating Alzheimer's Disease” (UNIVERSITY OF MEDICINE AND DENTISTRY OF NEW JERSEY, priority 2008, published 2011).

Molecular target: T1, eEF2 kinase (Homo sapiens, UniProt O00418)
T1 construct: made in house; host or cells: E. coli
Test: HTS screen for eEF2 kinase inhibitors (ATP depletion coupled to luciferase luminescence, eEF2p substrate)
Format: biochemical

identified as inhibitor for eEF2 kinase: inhibitors for eEF2 kinase
Compound: CCCCCCCCCCCCCCCCN1C2=NCCCN2c2ccccc21 [L-587]
